Measured values reported in patent US20120003310A1 (priority 2009, published 2012).

Assay: Aqueous solubility of rasagiline base and rasagiline salts
Conditions: water

Substance: rasagiline citrate
- concentration of solutions that could be prepared: more than 70 % wt
